Compound activity deposited in PubChem BioAssay by several laboratories.
Shown are actives, neighbours in structure and some others; about 2.3% of the full set was active somewhere.
MC4R antagonist – MC4R antagonists of cAMP signaling, primary screen, cell-based, TR-FRET, antagonist arm of biased-ligand search; Melanocortin receptor 4 (Homo sapiens), P32245; MC4R-expressing cells, MTII-stimulated cAMP, LANCE TR-FRET; inhibition, % at 6.5 µM; actives 0.48% (n = 360,000);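 active = inhibition above its plate's cutoff, the mean of tested wells on that plate plus 3 SD, cut at about 29% in these data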;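 also: 0% = Melanotan II alone and 100% = Melanotan II plus saturating MCL0020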
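Assay system: U2OS-MC4R stable cell line; Also added: Melanotan II; Technique: Eu-cAMP/anti-cAMP TR-FRET, emission 671 nm; Times: 30-min compound, 1-h challenge, 1-h detection, room temperature.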
ARFGAP1 inh – inhibitors of rat ARFGAP1 GAP activity, primary screen, biochemical, fluorescence polarization, GDP tracer; ADP-ribosylation factor GTPase-activating protein 1 (Rattus norvegicus), Q62848; Arfgap1-stimulated ARF1 GTP hydrolysis, GDP FP detection; inhibition, % at 16.5 µM; actives 0.26% (n = 360,000); AID 651572, 2012;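 active = inhibition above a per-plate limit, mean inhibition of low control wells plus 3 SD, cut at about 25% in these data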;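 also: 0% = DMSO wells with enzyme and 100% = wells lacking Arfgap1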
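Material: truncated rat Arfgap1 GAP domain; Incubation: compound-enzyme preincubation 20 min, reaction 120 min, detection 60 min, 25 °C; Read-out: percent inhibition of Arfgap1-stimulated GTP hydrolysis; Technique: FP, GDP Alexa 633 tracer displaced from anti-GDP antibody, 620/688 nm; Controls: No-Arfgap1 wells (100%) versus DMSO full-reaction wells (0%); Replication: single well per compound.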
CendR NRP1 mod – modulators of CendR peptide binding to NRP-1, primary screen, biochemical, fluorescence polarization, uHTS. FAM-RPARPAR peptide binding to NRP-1. inhibition, % at 25 µM. actives 0.85% (n = 360,000). AID 602438, 2012;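 active = inhibition or corrected inhibition above about 18%, plus a signal ratio from 0.5 to 1.5, limit read from the data, passing the limit was not always enough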
ASAP1 inh – inhibitors of human ASAP1 ArfGAP activity, primary screen, biochemical, fluorescence polarization; ASAP1-stimulated ARF1 GTP hydrolysis, GDP FP detection; inhibition, % at 16.5 µM; actives 0.19% (n = 360,000); AID 624377, 2012; Arf-GAP with SH3 domain, ANK repeat and PH domain-containing protein 1 (Homo sapiens), …; in the data active = inhibition above about 25%;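 also: 0% = vehicle with enzyme and substrate and 100% = no enzyme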
MC4R ag barr – MC4R agonists recruiting beta-arrestin, primary screen, cell-based, luminescence, agonist arm of biased-ligand search. Melanocortin receptor 4 (Homo sapiens), P32245. U2OS MC4R beta-arrestin complementation; percent of melanotan II response, DMSO zero. activation, % at 8.9 µM. actives 0.98% (n = 360,000);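 active = activation above a per-plate cutoff, the mean activation of sample wells on that plate plus 3 SD, cut at about 8% in these data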
UUG fidelity – alters start codon recognition fidelity in yeast | S. cerevisiae UUG-firefly luciferase reporter, luminescence/redox ratio | activity score, % at 18.7 µM | hit rate 0.13% among 350,000 | AID 602363;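 active means replicate mean at a twofold rise or more, about +100% in these data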;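 further: firefly luciferase made from a UUG start codon reports start codon fidelity; reporter light over untreated wells divided by growth signal over untreated wells; some hits fall short of that in this replicate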
MC4R barr conf – MC4R beta-arrestin agonists, retest, confirmation, cell-based, luminescence, U2OS | shares compounds with MC4R ag barr | U2OS MC4R beta-arrestin recruitment; scaled DMSO 0%, Melanotan II 100% | activation, % at 8.9 µM | AID 602192, 2012 | actives 31% (n = 2,400);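 active = mean activation across replicates above the hit cutoff set in the earlier primary screen, cut at about 8% in these data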
MOR-DOR barr ag – agonists of MOR-DOR heterodimerization, counter-screen for MC4R biased agonist project, cell-based, luminescence. shares compounds with MC4R ag barr. U2OS PathHunter beta-arrestin, beta-gal luminescence; percent of deltorphin B response, DMSO zero. activation, % at 9.2 µM. actives 5.8% (n = 2,400);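 active = mean activation across replicates exceeds the hit threshold derived in the earlier primary screen, cut at about 18% in these data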;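 also: 100% = deltorphin B at 0.9 µM final and 0% = DMSO alone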
* hit, by the source's call; · = no result given.

Amino acid sequences for entries named in this document (tags omitted).
Melanocortin receptor 4 (Homo sapiens), P32245, UniProt P32245, whole entry, looked up: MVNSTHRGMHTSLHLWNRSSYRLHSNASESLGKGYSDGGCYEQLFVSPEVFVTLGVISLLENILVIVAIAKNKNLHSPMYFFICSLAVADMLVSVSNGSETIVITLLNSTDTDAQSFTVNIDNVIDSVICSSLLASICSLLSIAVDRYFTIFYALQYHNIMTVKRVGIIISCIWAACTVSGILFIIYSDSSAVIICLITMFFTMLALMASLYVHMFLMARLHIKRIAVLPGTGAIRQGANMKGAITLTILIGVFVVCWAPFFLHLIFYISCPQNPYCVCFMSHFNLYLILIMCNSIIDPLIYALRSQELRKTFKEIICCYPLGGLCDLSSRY
ADP-ribosylation factor GTPase-activating protein 1 (Rattus norvegicus), Q62848, UniProt Q62848, whole entry, looked up: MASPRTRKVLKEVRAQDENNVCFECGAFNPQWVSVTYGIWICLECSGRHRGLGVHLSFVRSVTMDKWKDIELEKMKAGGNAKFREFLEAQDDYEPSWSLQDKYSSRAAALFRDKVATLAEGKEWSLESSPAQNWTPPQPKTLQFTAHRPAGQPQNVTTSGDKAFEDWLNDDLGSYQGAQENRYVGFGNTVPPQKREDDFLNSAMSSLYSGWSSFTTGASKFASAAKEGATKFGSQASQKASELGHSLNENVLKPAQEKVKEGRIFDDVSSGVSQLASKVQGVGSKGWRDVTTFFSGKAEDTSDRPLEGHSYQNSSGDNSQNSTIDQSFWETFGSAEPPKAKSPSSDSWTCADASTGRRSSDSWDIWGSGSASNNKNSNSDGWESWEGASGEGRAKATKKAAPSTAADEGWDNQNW

(1) COc1cc(OC)nc(Nc2nc(C(N)Cc3ccc(Cl)cc3)cs2)n1 (stereo unspecified)
(2) COc1cc(CNC(=O)Nc2nc(C(N)Cc3ccc(C(F)(F)F)cc3)cs2)cc(OC)c1OC (stereo unspecified)
(3) CO[C@@H]1CN(C)C(=O)c2ccc(NC(=O)Nc3ccccc3)cc2OC[C@H](C)N(C(=O)Nc2c(C)noc2C)C[C@H]1C
(4) NC(Cc1ccc(C(F)(F)F)cc1)c1csc(NC(=O)Nc2ccccc2)n1 (stereo unspecified)
(5) CC(C)CC(N)c1csc(NC(=O)C(c2ccccc2)c2ccccc2)n1 (stereo unspecified)
(6) CC(C)CC(N)c1csc(NC(=O)Nc2ccccc2Cc2ccccc2)n1 (stereo unspecified)

entry no.	1	2	3	4	5	6
MC4R antagonist	-1	-1	·	1	-1	5
CendR NRP1 mod	1	-4	·	-11	5	11
MOR-DOR barr ag	11	4	·	13	24*	·
ARFGAP1 inh	5	1	·	8	14	5
MC4R ag barr	21*	10*	·	19*	13*	6
ASAP1 inh	6	-5	·	-1	10	4
UUG fidelity	-6	-6	6	-8	5	-2
MC4R barr conf	7	1	·	19*	16*	·

As entered above.
`COc1cc(OC)nc(Nc2nc(C(N)Cc3ccc(Cl)cc3)cs2)n1` (stereo unspecified) – MC4R antagonist: -1
`NC(Cc1ccc(C(F)(F)F)cc1)c1csc(NC(=O)Nc2ccccc2)n1` (stereo unspecified) – MOR-DOR barr ag: 13

The list continues:
(7) COc1ccccc1NC(=O)Nc1nc(C(N)Cc2ccc(Cl)cc2)cs1 (stereo unspecified)
(8) NC(Cc1ccc(Cl)cc1)c1csc(NC(=O)Nc2ccccc2)n1 (stereo unspecified)
(9) COc1ccc(CC(N)c2csc(NC(=O)Nc3cccc(C(F)(F)F)c3)n2)cc1 (stereo unspecified)
(10) C[C@@H]1CN([C@H](C)CO)C(=O)c2cc(NS(=O)(=O)c3cccs3)ccc2O[C@@H]1CN(C)Cc1ccc2c(c1)OCO2
(11) CC(=O)Nc1cc(-c2cccc(NS(C)(=O)=O)c2)cn2c(-c3cccc(C(F)(F)F)c3)cnc12
(12) CC(=O)Nc1cc(-c2cccc(C(=O)NCCN(C)C)c2)cn2c(-c3cccc(C(F)(F)F)c3)cnc12

entry no.	7	8	9	10	11	12
MC4R antagonist	7	1	2	·	12	0
CendR NRP1 mod	-14	-5	13	·	-24	-5
MOR-DOR barr ag	10	13	·	·	·	8
ARFGAP1 inh	16	17	16	·	4	-5
MC4R ag barr	13*	20*	0	·	0	42*
ASAP1 inh	13	1	10	·	10	6
UUG fidelity	1	-24	26	-5	-14	2
MC4R barr conf	22*	22*	·	·	·	23*

Down the list, as entered above.
ARFGAP1 inh, compounds 7–12, in order: 16, 17, 16, ·, 4, -5

Remaining list, next part
(13) CC(=O)Nc1cc(-c2ccccc2N(C)C)cn2c(-c3cccc(C(F)(F)F)c3)cnc12
(14) O=C(COc1ccc(C(=S)N2CCOCC2)cc1Cl)Nc1ccccc1Cl
(15) COc1cc(C(=S)N2CCCCC2)ccc1OCC(=O)Nc1ccccc1Cl
(16) COc1ccccc1C(=O)Nc1nc2ccc(S(C)(=O)=O)cc2s1
(17) CCOC(=O)c1c(CSC(=N)N)n(C)c2cc(Br)c(OC(C)=O)cc12

entry no.	13	14	15	16	17
MC4R antagonist	-1	12	12	4	1
CendR NRP1 mod	128	4	6	-37	-18
MOR-DOR barr ag	3	4	·	4	·
ARFGAP1 inh	3	-1	11	-3	4
MC4R ag barr	15*	22*	0	14*	-3
ASAP1 inh	-12	-5	8	0	-13
UUG fidelity	13	·	-23	-23	·
MC4R barr conf	11*	-1	·	-1	·
